The results in this text go back to patent EP1210937A2, “Device for topical treatment of acne and its method of manufacture” (priority 1996, dated 1997).

This series has as its system guinea pigs. As to the kind of experiment: Delayed Contact Hypersensitivity test - Modified Buehler sensitization test. The class given is in vivo. To be noted: one value per guinea pig. As for the experimental part:
A Delayed Contact Hypersensitivity test, in compliance with the FDA Requirements per 9 CFR 2.31, was performed using patches containing salicylic acid, as disclosed in the preferred embodiments, in order to determine the capacity of the test substance to induce a systemic hypersensitivity response.
One group of 20 guinea pigs was exposed to the test material patch and one group of 10 guinea pigs was exposed to Dinitrochlorobenzene (DNCB), a known sensitizer. The day before dosing, the animals were clipped free of hair, as close to the skin as possible, using electric clippers.
The test material patch was applied to the clipped area of each of the 20 guinea pigs and held in place with a non-irritant tape. The patches were left in place for 6 hours and then removed. The test sites were scored for erythema at 24 and 48 hours post application. This procedure was repeated at the same site once a week for the next two weeks for a total of three 6-hour exposures. After the last patch application the animals remained untreated for approximately two weeks.
To the positive control group of 10 guinea pigs, a solution of 0.75% of DNCB in 50 % ethanol was applied and scored as previously described.
After the two week rest, the test group and the positive control group were challenged on naive sites. The test material was applied to the test group and the DNCB to the positive control group. The procedure employed was as described above, except skin evaluations were made at 24, 48 and 72 hours post application.

The structures appear in SMILES notation. Where “and” joins values, the source holds several entries; their conditions need not be identical. Equal values may be shown once.

`O=[N+]([O-])c1ccc(Cl)c([N+](=O)[O-])c1` [positive control, Dinitrochlorobenzene]: the “Individual animal scores. Erythema” value is 2 (2×) and 1 (8×) (challenge phase on naive sites, 24 h post application); 1 (5×) and 0.5 (5×) (challenge phase on naive sites, 48 h post application); 0.5 (9×) and 0 (challenge phase on naive sites, 72 h post application); 1 (7×) and 0.5 (3×) (induction phase, Week 1, 24 h post application); 0 (6×) and 0.5 (4×) (induction phase, Week 1, 48 h post application); 1 (8×) and 0.5 (2×) (induction phase, Week 2, 24 h post application). Further, the “Individual animal scores. Erythema” value is 1 (4×) and 0.5 (4×) and 0 (2×) (induction phase, Week 2, 48 h post application); 2 (7×) and 1 (3×) (induction phase, Week 3, 24 h post application); 1 (9×) and 2 (induction phase, Week 3, 48 h post application).
